Among the data in US5079152A, “Antibody combining sites that exhibit stereoselective synthase activity, and methods using the same” (Scripps Clinic and Research Foundation, priority 1987, dated 1992) are Ki values, retold here.

As a reminder, the Ki is a measure of affinity in units of concentration, obtained from inhibition or displacement. Higher therefore signals weaker binding.

This test concerns monoclonal antibody 24B11 (receptor lactone synthase secreted by hybridoma 24B11, ATCC HB9488). As to the kind of experiment: Kinetics of lactone-forming cyclization catalyzed by monoclonal receptor lactone synthase 24B11 (phenol release at 271 nm, Lineweaver-Burk). It counts as biochemical, mouse. The following applies: linear competitive inhibition of cyclization of the substrate ligand; inhibitor 0.25 or 0.50 uM; receptor 2 uM; pH 7.0; 25 degrees C.

Turning to `CC(=O)NCC1CCCP(=O)(Oc2ccccc2)O1` (stereo not shown), the Ki amounted to 250 nM.
